BindingDB's records for PubMed 7796807 (Synaptic Pharmaceutical, 1995)

Target: Neuropeptide Y receptor type 2 (Homo sapiens, UniProt P49146)

Ki: 19.9 nM
SMILES: CC[C@H](C)[C@H](NC(=O)[C@H](Cc1ccc(O)cc1)NC(=O)[C@H](CCCN=C(N)N)NC(=O)[C@H](CCCNC(=N)N)NC(=O)[C@H](CC(C)C)NC(=O)[C@H](CC(=O)O)NC(=O)[C@H](C)NC(=O)[C@H](C)NC(=O)[C@H](Cc1ccc(O)cc1)NC(=O)[C@H](CCC(N)=O)NC(=O)[C@H](C)NC(=O)[C@H](CCSC)NC(=O)[C@H](CCC(N)=O)NC(=O)[C@H](CCC(=O)O)NC(=O)[C@@H]1CCCN1C(=O)[C@@H](NC(=O)[C@H](C)NC(=O)[C@H](CC(N)=O)NC(=O)[C@H](CC(=O)O)NC(=O)CNC(=O)[C@@H]1CCCN1C(=O)[C@H](Cc1ccc(O)cc1)NC(=O)[C@@H](NC(=O)[C@@H]1CCCN1C(=O)[C@H](CCC(=O)O)NC(=O)[C@H](CC(C)C)NC(=O)[C@@H]1CCCN1C(=O)[C@H](C)N)C(C)C)[C@@H](C)O)C(=O)N[C@@H](CC(N)=O)C(=O)N[C@@H](CCSC)C(=O)N[C@H](C(=O)N[C@H](C(=O)N[C@@H](CCCN=C(N)N)C(=O)N[C@@H](CCC(N)=O)C(=O)N[C@@H](CCCN=C(N)N)C(=O)N[C@@H](Cc1ccc(O)cc1)C(N)=O)[C@@H](C)O)[C@@H](C)CC [PP [Ile31,Gln34], human]
